One molecule from ChEMBL document CHEMBL4004863, “Design, synthesis, biological evaluation and X-ray structural studies of potent human dihydroorotate dehydrogenase inhibitors based on hydroxylated azole scaffolds” (Eur J Med Chem, 2017) can be followed below.

In general, IC50 refers to the point on the concentration scale where inhibition reaches its midpoint.

This assay relates to Jurkat. Description: Antiproliferative activity against human Jurkat T cells assessed as DNA content after 72 hrs by Hoechst 33258 dye based fluorometric method. The assay is classed as functional, cell-based. The method in brief: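 Jurkat T cells grown in X-VIVO 15 with 10% FBS and antibiotic-antimycotic at 37 °C, 5% CO2, passages 5–10, mycoplasma-free, STR-authenticated. IC50 came from nonlinear regression, mean ± SE of three experiments. Uridine, where added, was at 100 μM.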

For the molecule `C/C(O)=C(\C#N)C(=O)Nc1ccc(C(F)(F)F)cc1` [TERIFLUNOMIDE], the 50% inhibitory concentration (IC50) was 43.2 µM.
